Biological target: neutrophil elastase (Homo sapiens (Human), UniProt P08246)
Assay: Human Neutrophil Elastase Assay
Conditions: substrate MeOSuc-Ala-Ala-Pro-Val-AMC

Chains of the proteins cited; added tags and fusions are not shown. Residues count along the entry.
UniProt P08246, 30-247 limits assumed: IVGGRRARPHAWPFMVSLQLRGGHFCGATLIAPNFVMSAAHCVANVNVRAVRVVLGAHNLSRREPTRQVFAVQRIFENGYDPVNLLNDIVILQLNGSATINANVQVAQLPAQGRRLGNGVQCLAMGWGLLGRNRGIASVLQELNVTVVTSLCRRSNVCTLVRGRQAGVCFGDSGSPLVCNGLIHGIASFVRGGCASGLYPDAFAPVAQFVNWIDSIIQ

Row | IC50 | SMILES
1 | < 1 nM | CC(=O)C1=C(C)N(c2cccc(C(F)(F)F)c2)C(=O)N(C)C1c1ccc(C#N)cc1C(=O)N1CC[C@H](N(C)C(C)=O)C1 (some centres unmarked)
2 | < 1 nM | CCOC(=O)C1=C(C)N(c2cccc(C(F)(F)F)c2)C(=O)N(C)C1c1ccc(C#N)cc1C(=O)N(C)CCNC (centres unmarked)
3 | 1.1 nM | CC(=O)C1=C(C)N(c2cccc(C(F)(F)F)c2)C(=O)N(C)C1c1ccc(C#N)cc1C(=O)N1CCC(N2CCOCC2)C1 (centres unmarked)
4 | 1.6 nM | CCOC(=O)C1=C(C)N(c2cccc(C(F)(F)F)c2)C(=O)N(C)C1c1ccc(C#N)cc1C(=O)NC(C)(C)C#N (centres unmarked)

The remaining lines, values behind:

Row | SMILES | IC50
5 | CC(=O)N[C@H]1CCN(C(=O)c2cc(C#N)ccc2C2C(C(C)=O)=C(C)N(c3cccc(C(F)(F)F)c3)C(=O)N2C)C1 (some centres unmarked) | < 1 nM
6 | CC(=O)C1=C(C)N(c2cccc(C(F)(F)F)c2)C(=O)N(C)C1c1ccc(C#N)cc1C(=O)N(C)CCN1CCOCC1 (centres unmarked) | < 1 nM
7 | CC(=O)N[C@@H]1CCN(C(=O)c2cc(C#N)ccc2C2C(C(C)=O)=C(C)N(c3cccc(C(F)(F)F)c3)C(=O)N2C)C1 (some centres unmarked) | < 1 nM
8 | CC(=O)C1=C(C)N(c2cccc(C(F)(F)F)c2)C(=O)N(C)C1c1ccc(C#N)cc1C(=O)N1CC[C@@H](N(C)C(C)=O)C1 (some centres unmarked) | < 1 nM
9 | CC(=O)C1=C(C)N(c2cccc(C(F)(F)F)c2)C(=O)N(C)C1c1ccc(C#N)cc1C(=O)NCCN1CCOCC1 (centres unmarked) | < 1 nM
10 | CC(=O)C1=C(C)N(c2cccc(C(F)(F)F)c2)C(=O)N(C)C1c1ccc(C#N)cc1C(=O)N1CCN(C(C)=O)CC1 (centres unmarked) | 1.3 nM
11 | CC(=O)C1=C(C)N(c2cccc(C(F)(F)F)c2)C(=O)N(C)C1c1ccc(C#N)cc1C(=O)N1CCC(N2CCOCC2)CC1 (centres unmarked) | 1.9 nM

— patent publication US9290457B2, “Substituted dihydropyrimidinones and their use as inhibitors of neutrophil elastase activity” (Boehringer Ingelheim International GmbH, priority 2014, dated 2016)
